Sequences of proteins named here, by UniProt entry; tags and fusion partners are left off. A change or cut given only in a name is not applied to a line headed by its entry.
UniProt P07237: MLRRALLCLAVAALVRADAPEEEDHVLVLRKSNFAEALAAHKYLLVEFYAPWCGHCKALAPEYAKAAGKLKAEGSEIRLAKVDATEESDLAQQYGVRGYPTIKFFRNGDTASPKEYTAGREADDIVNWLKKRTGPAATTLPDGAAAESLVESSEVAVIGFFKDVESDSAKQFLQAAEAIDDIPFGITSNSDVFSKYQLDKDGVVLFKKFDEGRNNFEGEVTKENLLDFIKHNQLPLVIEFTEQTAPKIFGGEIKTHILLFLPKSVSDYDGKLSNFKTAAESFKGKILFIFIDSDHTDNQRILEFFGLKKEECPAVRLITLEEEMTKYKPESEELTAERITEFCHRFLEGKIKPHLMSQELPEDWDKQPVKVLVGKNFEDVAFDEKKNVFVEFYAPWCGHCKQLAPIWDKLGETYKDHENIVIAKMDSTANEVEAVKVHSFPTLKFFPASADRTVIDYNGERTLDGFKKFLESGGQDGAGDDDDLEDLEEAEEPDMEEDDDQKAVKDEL

According to ChEMBL document CHEMBL5385922 (J Med Chem, 2024):

Legend:
[1] = target: Protein disulfide-isomerase (Homo sapiens, UniProt P07237); assay: Covalent inhibition of human recombinant PDI assessed as inhibition of E-GSH formation using Di-E-GSSG as substrate at 10 uM measured for 60 mins in presence of DTT and 1 mM GSH by fluorescence based analysis
How it was run: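 Human rPDI incubated with compounds at 10 μM in the presence of DTT (5 μM) or GSH (1 mM). PDI activity read by Di-E-GSSG assay (E-GSH fluorescence). Mean ± SEM of three independent experiments.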

Platelet = assay: Antiplatelet activity in human platelets assessed as inhibition of collagen-induced platelet aggregation by turbidimetric analysis; type: functional, cell-based

Compound | inhibition [1] | IC50 (Platelet) [µM]
O=C1C=CC(=O)c2c(O)cccc21 | Active | 
CC(=O)Oc1ccccc1C(=O)O [ASPIRIN] |  | 157

The source made the active and inactive calls. No cut-off for these calls is given here.
